Among the data in publication PMC11231564, “Unveiling the Ro60-Ro52 complex” (EXCLI Journal, 2024) are Ka and kon values, retold here.

Sequences of proteins named here, by UniProt entry; tags and fusion partners are left off. A change or cut given only in a name is not applied to a line headed by its entry.
UniProt P10155: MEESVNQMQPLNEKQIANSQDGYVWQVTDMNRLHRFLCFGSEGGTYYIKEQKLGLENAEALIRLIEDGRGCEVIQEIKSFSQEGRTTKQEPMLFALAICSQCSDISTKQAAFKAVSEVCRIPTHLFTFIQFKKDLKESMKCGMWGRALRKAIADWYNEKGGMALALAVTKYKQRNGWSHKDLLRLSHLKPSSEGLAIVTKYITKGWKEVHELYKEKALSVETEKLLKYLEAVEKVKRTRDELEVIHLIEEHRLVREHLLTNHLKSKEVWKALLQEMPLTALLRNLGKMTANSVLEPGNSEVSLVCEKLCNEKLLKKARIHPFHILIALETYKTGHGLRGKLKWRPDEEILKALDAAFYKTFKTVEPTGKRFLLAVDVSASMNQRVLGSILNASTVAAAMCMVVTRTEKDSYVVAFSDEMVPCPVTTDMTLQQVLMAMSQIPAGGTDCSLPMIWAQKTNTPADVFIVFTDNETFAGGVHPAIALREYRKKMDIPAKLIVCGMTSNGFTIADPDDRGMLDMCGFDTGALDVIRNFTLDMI

The target of assay [1] is T1, Ro60 protein (recombinant human protein) (human, UniProt P10155).
T1 construct: Ro60/TROVE2 (60 kDa), human, recombinant; Coupled covalently to the QCM-D chip (mercaptopropionic acid SAM, EDC/NHS, carbohydrazide) in a1 and a2; in solution at 50 mg/L in a3; also called TROVE2; Ro60/Trove2; source: bought: Deltaclon (recombinant human protein)
The assay can be described thus: QCM-D; Ro60 coupled to the chip; Ro52 50 mg/L injected in a 100 mM CaCl2 solution; 50 µL/min, 25 °C; one-to-one binding kinetics model; apparent equilibrium constant. Particulars: both partners purified.

The target of assay [2] is T1, Ro60 protein (recombinant human protein). The assay can be described thus: QCM-D; Ro60 coupled to the chip; Ro52 300 mg/L (BSA 700 mg/L) flowed over; 1x PBS pH 7.4 lacking CaCl2, 50 µL/min, 25 °C; one-to-one binding kinetics model; apparent equilibrium constant. Particulars: both partners purified.

B1: Ro52 protein (natural protein, human, UniProt P19474 1-475, looked up)
chain: MASAARLTMMWEEVTCPICLDPFVEPVSIECGHSFCQECISQVGKGGGSVCPVCRQRFLLKNLRPNRQLANMVNNLKEISQEAREGTQGERCAVHGERLHLFCEKDGKALCWVCAQSRKHRDHAMVPLEEAAQEYQEKLQVALGELRRKQELAEKLEVEIAIKRADWKKTVETQKSRIHAEFVQQKNFLVEEEQRQLQELEKDEREQLRILGEKEAKLAQQSQALQELISELDRRCHSSALELLQEVIIVLERSESWNLKDLDITSPELRSVCHVPGLKKMLRTCAVHITLDPDTANPWLILSEDRRQVRLGDTQQSIPGNEERFDSYPMVLGAQHFHSGKHYWEVDVTGKEAWDLGVCRDSVRRKGHFLLSSKSGFWTIWLWNKQKYEAGTYPQTPLHLQVPPCQVGIFLDYEAGMVSFYNITDHGSLIYSFSECAFTGPLRPFFSPGFNDGGKNTAPLTLCPLNIGSQGSTDY
notes: Ro52/TRIM21 (52 kDa); also called TRIM21; Ro52/Trim21
For the molecule B1, in assay [1], the Ka is 3.7e+06 M⁻¹ and the kon turned out to be 2600 ± 100 M⁻¹ s⁻¹. Also, in assay [2], the Ka turned out to be 143000 M⁻¹ and the kon is 449 ± 16 M⁻¹ s⁻¹.

One may read the kon as the rate constant with which the complex forms.
